Experimental data published in paper PMC9887599, “Synthesis, Optical Properties, and Antiproliferative Evaluation of NBD-Triterpene Fluorescent Probes” (Journal of Natural Products, 2022).

Assay: Absorption and fluorescence spectroscopy (photophysical data)
Assay type: physicochemical
Conditions: DMSO, 25 °C

Which “(λabs)max” value does the source give for `O=[N+]([O-])c1ccc(Cl)c2nonc12` here?
Its value is 471 nm.

And the “ε (molar extinction coefficient)” value?
The value was 369 M^–1 cm^–1.

And the “(λem)max” value (excitation at 480 nm)?
Its value is 557 nm.
